Assay in all cases: whole-cell patch clamp, Hill fit
Holding throughout (type): cell-based
(The patch-clamp technique gives a direct electrical read-out from membranes.)

The chains behind the UniProt entries cited, without tags or fusion partners. Residues count along the entry.
UniProt P23416, 28-343, stated change not applied: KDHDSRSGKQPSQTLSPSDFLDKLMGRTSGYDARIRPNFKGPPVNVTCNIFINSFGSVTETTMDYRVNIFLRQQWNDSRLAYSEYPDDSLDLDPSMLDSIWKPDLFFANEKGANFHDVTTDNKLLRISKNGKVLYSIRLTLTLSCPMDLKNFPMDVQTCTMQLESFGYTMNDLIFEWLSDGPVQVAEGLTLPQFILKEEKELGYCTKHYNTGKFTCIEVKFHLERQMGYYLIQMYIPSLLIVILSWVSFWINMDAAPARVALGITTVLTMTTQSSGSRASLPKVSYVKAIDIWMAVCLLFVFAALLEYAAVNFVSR
UniProt P23416, 409-452, stated change not applied: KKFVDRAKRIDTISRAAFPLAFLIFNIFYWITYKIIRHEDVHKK
UniProt P48167, 23-355 K23D/K25D/K28D/K29D/K31D/K33D/K34D/K35D: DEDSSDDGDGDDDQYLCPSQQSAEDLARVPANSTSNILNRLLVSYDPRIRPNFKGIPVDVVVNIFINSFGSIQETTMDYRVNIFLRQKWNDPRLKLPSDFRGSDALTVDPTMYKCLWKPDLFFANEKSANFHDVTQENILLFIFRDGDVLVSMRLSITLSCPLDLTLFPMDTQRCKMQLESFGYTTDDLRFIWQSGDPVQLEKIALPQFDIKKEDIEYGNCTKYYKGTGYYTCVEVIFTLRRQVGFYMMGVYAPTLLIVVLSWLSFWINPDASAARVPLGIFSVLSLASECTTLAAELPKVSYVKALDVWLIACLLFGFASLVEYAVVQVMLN
UniProt P48167, 400-497, stated change not applied: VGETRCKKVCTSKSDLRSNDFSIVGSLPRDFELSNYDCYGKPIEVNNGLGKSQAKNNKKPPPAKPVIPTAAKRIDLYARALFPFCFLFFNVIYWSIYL
UniProt P48167, 23-355, stated change not applied: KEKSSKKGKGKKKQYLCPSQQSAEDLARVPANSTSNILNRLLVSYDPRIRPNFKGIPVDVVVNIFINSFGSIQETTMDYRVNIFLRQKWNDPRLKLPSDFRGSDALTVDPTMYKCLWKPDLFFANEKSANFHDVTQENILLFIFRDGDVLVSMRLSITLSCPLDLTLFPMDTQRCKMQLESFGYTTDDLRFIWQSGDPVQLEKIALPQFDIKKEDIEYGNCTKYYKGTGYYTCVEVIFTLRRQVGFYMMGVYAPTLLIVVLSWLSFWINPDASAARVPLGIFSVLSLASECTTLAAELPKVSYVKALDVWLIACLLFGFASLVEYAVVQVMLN
UniProt P48167, 36-355, stated change not applied: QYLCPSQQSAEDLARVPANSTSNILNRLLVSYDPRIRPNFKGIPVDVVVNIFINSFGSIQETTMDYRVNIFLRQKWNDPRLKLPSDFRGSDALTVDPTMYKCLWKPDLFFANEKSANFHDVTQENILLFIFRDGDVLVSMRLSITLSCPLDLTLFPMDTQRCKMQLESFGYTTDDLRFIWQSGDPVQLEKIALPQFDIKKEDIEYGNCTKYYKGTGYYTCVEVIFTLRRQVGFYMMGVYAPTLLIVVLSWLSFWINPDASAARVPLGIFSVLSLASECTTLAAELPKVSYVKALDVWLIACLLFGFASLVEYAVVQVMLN

Assay [1] addresses α2β heteromeric GlyR (α2β GlyR) (Homo sapiens, UniProt P23416+P48167, P23416:DEL344-408/P48167:DEL356-399/P48167:K23D/P48167:K25D/P48167:K28D/P48167:K29D/P48167:K31D/P48167:K33D/P48167:K34D/P48167:K35D).
The target in assay [2] is α2β heteromeric GlyR (α2β GlyR) (Homo sapiens, UniProt P23416+P48167, P23416:DEL344-408/P48167:DEL356-399).
In assay [3] the target is α2β heteromeric GlyR (α2β GlyR) (Homo sapiens, UniProt P23416+P48167, P23416:DEL344-408/P48167:DEL23-35/P48167:DEL356-399).

As a reminder, the EC50 is the concentration giving half of the maximal effect. High values mean weaker potency, low ones greater potency. With `NCC(=O)O` [glycine], the values for the concentration giving a half-maximal response (EC50) in assay [1], in assay [2] and in assay [3] were 51 ± 3 µM, 60 ± 3 µM and 59 ± 3 µM, respectively.

The values are drawn from doi:10.1101/2024.10.17.618879v1 (biorxiv, 2024).
